The values below come from PubChem BioAssay AID1865 (National Center for Advancing Translational Sciences (NCATS), 2009).

The structures appear in SMILES notation. Only a part is listed here, and it is no random draw. The source made the active and inactive calls. The call rests on the fitted dose curve; in most records, active means well fitted activation curve with a large enough effect; inconclusive means small, poorly fitted or top-dose-only effect; inactive means flat fitted curve, though single readings scatter.

A short description of the experiment: Quantitative High-Throughput Screen for Regulators of Epigenetic Control. Further: % of control where 0% means no effect; nearly all actives have a fitted effect of over 60% in size. As to conditions: murine LDR cells, GFP reporter derepression, 30 h; at 53.9 µM (top of the series). An excerpt:
NIH Molecular Libraries Screening Centers Network [MLPCN] NIH Chemical Genomics Center [NCGC] MLSCN Grant: 1 X01 MH079860-01 Assay Provider: Elisabeth D. Martinez, University of Texas SW Medical Center NCGC Assay Overview: The Locus Derepression (LDR) assay detects the derepression or induction of a GFP reporter that is stably integrated in a genomic region of murine cells that is presumably silenced. Transcription of the GFP reporter is controlled by a CMV promoter, which normally is constitutively active. However, this cell line, termed LDR, was selected for lack of constitutive production of GFP. GFP production can be induced by incubating the cells with histone deacetylase or DNA methyltransferase inhibitors (Martinez et al., 2006). Compounds that derepress or induce this reporter locus are identified by enumerating GFP positive cells using a laser-scanning microplate cytometer (Auld et al., 2006). […]
NCGC Assay Protocol Summary: Three hundred LDR cells in 5 uL per well were dispensed into black, clear-bottom 1536-well plates. […] Fluorescent protein-based cellular assays analyzed by laser-scanning microplate cytometry in 1536-well plate format. […] A quantitative high-throughput screen identifies potential epigenetic modulators of gene expression. […] High-content fluorescence-based screening for epigenetic modulators. […]
Consider `CN(CCCl)CCCl`, for which the GFP activation is inactive: 11.7%.
